The target of the experiment is recombinant rat Nln (Rattus norvegicus, UniProt P42676). The experiment in a line: Nln activation, continuous quenched fluorescence substrate. The note with it: 100% = normal enzyme turnover; mean of n = 4, 95% CI in parentheses. Type of experiment: biochemical.

By UniProt entry, the sequences of proteins in these tests, tags left out. Residues count along the entry.
UniProt P42676, 38-704: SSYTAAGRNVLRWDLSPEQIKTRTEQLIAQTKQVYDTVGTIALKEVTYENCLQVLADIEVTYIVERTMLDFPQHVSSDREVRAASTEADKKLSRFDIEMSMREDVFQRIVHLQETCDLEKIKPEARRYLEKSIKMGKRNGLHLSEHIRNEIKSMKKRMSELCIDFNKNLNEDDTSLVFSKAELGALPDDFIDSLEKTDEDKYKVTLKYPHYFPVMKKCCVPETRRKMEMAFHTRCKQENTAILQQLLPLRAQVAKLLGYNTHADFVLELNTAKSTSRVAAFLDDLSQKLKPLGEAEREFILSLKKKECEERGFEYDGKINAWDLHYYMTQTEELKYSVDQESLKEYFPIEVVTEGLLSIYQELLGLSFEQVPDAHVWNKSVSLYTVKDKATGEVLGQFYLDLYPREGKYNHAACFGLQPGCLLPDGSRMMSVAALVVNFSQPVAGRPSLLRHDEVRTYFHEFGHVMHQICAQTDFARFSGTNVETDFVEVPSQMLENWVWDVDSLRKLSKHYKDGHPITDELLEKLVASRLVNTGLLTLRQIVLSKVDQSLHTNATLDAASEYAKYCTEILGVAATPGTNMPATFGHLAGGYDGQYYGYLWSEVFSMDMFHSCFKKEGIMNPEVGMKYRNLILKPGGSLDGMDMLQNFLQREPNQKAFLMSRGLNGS

As for `N[C@@H](Cc1c[nH]cn1)C(=O)NCCc1ccc(F)cc1` [Compound 4m, (S)-2-Amino-N-(4-fluorophenethyl)-3-(1H-imidazol-4-yl)-propanamide], the “Amax, maximum % activation achieved (95% CI)” value is 253.8 (231.2 to 278.9) %.

Turning to `N[C@H](Cc1c[nH]cn1)C(=O)NCCc1ccc(F)cc1` [Compound 4n, (R)-2-Amino-N-(4-fluorophenethyl)-3-(1H-imidazol-4-yl)-propanamide], the “Amax, maximum % activation achieved (95% CI)” value is 353.8 (340.6 to 368.1) %.

Values taken from paper PMC9295256 (Journal of medicinal chemistry, 2021).
